# Laboratory results published in PubChem BioAssay (NCI).
#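 Tested at 5 concentrations; 48 h exposure; 96-well plates; endpoints linearly interpolated, else capped at highest concentration. GI50 = concentration required for 50% inhibition of growth. At the TGI there is no net growth.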
# System: MDA-MB-468 breast
# Experiment: DTP human tumour cell line panel, 48 h
smiles,measurement,value
O=C(Nc1cc([As](=O)(O)O)ccc1O)c1ccccc1,GI50,> 100 µM
same,TGI,> 100 µM
